Ki data for 32 compounds are collected here from patent US7495109B2, “Nociceptin analogs” (dated 2009).

Protein sequences, listed by entry. Tags and fused reporters are not part of them. Lines headed by an entry give the natural chain unless they say otherwise; changes in a name come on top.
UniProt P35372, whole entry, looked up: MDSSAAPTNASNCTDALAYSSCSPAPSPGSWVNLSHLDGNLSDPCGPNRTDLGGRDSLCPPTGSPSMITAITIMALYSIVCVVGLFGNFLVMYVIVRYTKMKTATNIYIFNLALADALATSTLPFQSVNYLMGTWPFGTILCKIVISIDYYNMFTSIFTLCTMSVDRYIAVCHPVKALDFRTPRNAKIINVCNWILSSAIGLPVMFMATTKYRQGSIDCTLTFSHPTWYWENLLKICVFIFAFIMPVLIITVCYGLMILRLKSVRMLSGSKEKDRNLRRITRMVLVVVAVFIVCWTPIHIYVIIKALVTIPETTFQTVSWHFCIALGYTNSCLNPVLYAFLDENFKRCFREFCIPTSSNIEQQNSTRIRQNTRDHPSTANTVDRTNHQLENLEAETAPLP
UniProt P41146: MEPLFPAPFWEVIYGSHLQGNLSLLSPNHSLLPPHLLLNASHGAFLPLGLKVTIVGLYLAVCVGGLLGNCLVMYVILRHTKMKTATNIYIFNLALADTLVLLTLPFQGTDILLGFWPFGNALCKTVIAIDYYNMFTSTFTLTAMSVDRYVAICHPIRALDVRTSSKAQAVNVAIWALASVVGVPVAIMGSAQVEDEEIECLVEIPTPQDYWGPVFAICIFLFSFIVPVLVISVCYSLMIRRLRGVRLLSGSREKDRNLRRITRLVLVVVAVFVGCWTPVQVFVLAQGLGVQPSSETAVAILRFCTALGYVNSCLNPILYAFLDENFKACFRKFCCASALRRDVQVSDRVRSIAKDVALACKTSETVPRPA

pKi: −log10 of the molar value. Where only a bound is given, the exact number is not on record here.

The first test deals with Mu opioid receptor (Homo sapiens, UniProt P35372). In words: Affinity at the μ receptor ([35S]GTPγS binding, membranes). Conditions: read-out: Mu Receptor Affinity calc Ki; Table 5; mu opioid receptor membrane solution.
For orientation: pKi means −log10 of the Ki, conventionally taken in molar units. Turning to “2-cyanoimino-3-ethyl-1-[1-(1,2,3,4-tetrahydronaphthyl)-4-piperidinyl]-1,3-dihydro-2H-benzimidazole”, the negative-log Ki (pKi) is 6.34. Still for that read-out and setting: with `CCn1c(=O)n(C2CCC(Nc3ccc4ccccc4c3)CC2)c2ccccc21` (stereo not shown) the figure was 8.68.

The target of another test is human opioid receptor-like receptor (ORL-1) (Homo sapiens, UniProt P41146). In words: Nociceptin affinity at the ORL1 receptor ([35S]GTPgS binding, HEK-293 membranes). Conditions: read-out: Nociceptin Affinity calc Ki; Table 3; membranes from recombinant HEK-293 cells expressing human ORL-1.
Take `CCNC1CCC(n2c(=O)[nH]c3ccccc32)CC1` (stereo not shown): the pKi is 5.04. Take `CCn1c(=O)n(Cc2ccccc2)c2ccccc21`: the pKi was 6.53. On to `NC(=O)c1ccc2c(c1)[nH]c(=O)n2C1CCC(NCc2ccccc2)CC1` (stereo not shown), for which the negative-log Ki (pKi) is < 5.00. Still for that read-out and setting: as for `CCn1c(=O)n(Cc2ccc(-c3ccccc3)cc2)c2ccccc21`, the figure is 6.29; as for `NC(=O)c1ccc2c(c1)[nH]c(=O)n2C1CCC(NC2CCC(c3ccccc3)CC2)CC1` (stereo not shown), < 5.00. On the same count and under the same terms, with `NC(=O)c1ccc2c(c1)[nH]c(=O)n2C1CCC(NC2Cc3ccccc3C2)CC1` (stereo not shown) the figure was < 5.00; with `NC(=O)c1ccc2c(c1)[nH]c(=O)n2C1CCC(NC2CCC3CCCCC3C2)CC1` (stereo not shown), < 5.00. As for `O=c1[nH]c2ccccc2n1C1CCC(NC2CCC3CCCCC3C2)CC1` (stereo not shown), the negative logarithm of the Ki (pKi) is < 5.00.

As to `CCn1c(=O)n(CCCCC(C)(c2ccc(F)cc2)c2cccc(F)c2)c2ccccc21` (stereo not shown), the negative-log Ki (pKi) was 6.83. In the case of “1-[4-[(1,2,3,4-tetrahydronaphthyl)amino]-cyclohexyl]-5-carbamoyl-1,3-dihydro-2H-benzimidazol-2-one”, the pKi is < 5.00. Take `CCCC1CCC(n2c(=O)n(CC)c3ccccc32)CC1` (stereo not shown): the negative-log Ki (pKi) was 7.17. As for `CCn1c(=O)n(C(C)CCC(C)C)c2ccccc21` (stereo not shown), the pKi was 7.64. On the same count and under the same terms, as for `CC(C)CCC(C)NC1CCC(n2c(=O)[nH]c3cc(C(N)=O)ccc32)CC1` (stereo not shown), the figure is < 5.00; as for `O=c1[nH]c2ccccc2n1C1CCC(NC2CC3CCC2C3)CC1` (stereo not shown), < 5.00; as for `CCn1c(=O)n(Cc2ccc(OCc3ccccc3)cc2)c2ccccc21`, 6.36. As to `CCn1c(=O)n(Cc2ccc3ccccc3c2)c2ccccc21`, the pKi was 6.70. On to `CCn1c(=O)n(C2CCC(Nc3ccc4ccccc4c3)CC2)c2ccccc21` (stereo not shown), for which the pKi is 6.02.

With `CCn1c(=O)n(C2CCC(NCc3ccc(OCc4ccccc4)cc3)CC2)c2ccccc21` (stereo not shown), the pKi was 5.53.

With `NC(=O)c1ccc2c(c1)[nH]c(=O)n2C1CCC(NCc2ccc(-c3ccccc3)cc2)CC1` (stereo not shown), the pKi is < 5.00.

For the compound `CC(C)CCC(C)NC1CCC(n2c(=O)[nH]c3cccc(C(N)=O)c32)CC1` (stereo not shown), the negative-log Ki (pKi) is < 5.00.

As for `CCn1c(=O)n(C2CCC3CCCCC3C2)c2ccccc21` (stereo not shown), the pKi was 8.80. Still for that read-out and setting: as for “3-ethyl-1-(naphthylmethyl)-1,3-dihydro-2H-benzimidazol-2-one”, the figure is 7.41; as for `NC(=O)c1ccc2c(c1)[nH]c(=O)n2C1CCC(NC2CCCCCCC2)CC1` (stereo not shown), < 5.00.

As for `CCn1c(=O)n(C2CCC(NC3CCC4CCCCC4C3)CC2)c2ccccc21` (stereo not shown), the pKi is 6.54. Still for that read-out and setting: as for `CCN(Cc1ccc2ccccc2c1)C1CCC(n2c(=O)[nH]c3ccccc32)CC1` (stereo not shown), the figure is 5.44. With `CC(C)C1CCC(NC2CCC(n3c(=O)[nH]c4ccccc43)CC2)CC1` (stereo not shown), the negative logarithm of the Ki (pKi) is < 5.00.

`NC(=O)c1ccc2c(c1)[nH]c(=O)n2C1CCC(N(Cc2ccccc2)Cc2ccccc2)CC1` (stereo not shown): the negative-log Ki (pKi) was < 5.00. Regarding `CCCC1CCC(NC2CCC(n3c(=O)[nH]c4cc(C(N)=O)ccc43)CC2)CC1` (stereo not shown), the negative logarithm of the Ki (pKi) was < 5.00. For `CCn1c(=O)n(C2CCC(N(Cc3ccccc3)C3Cc4ccccc4C3)CC2)c2ccccc21` (stereo not shown), the negative-log Ki (pKi) is < 5.00.

The test is the same for the next values; noted with them: read-out: Nociceptin Affinity calc Ki; Table 4 (headed TABLE 45); membranes from recombinant HEK-293 cells expressing human ORL-1.
Turning to “2-cyanoimino-3-ethyl-1-[1-(1,2,3,4-tetrahydronaphthyl)-4-piperidinyl]-1,3-dihydro-2H-benzimidazole”, the pKi is 6.80.

As for “2-cyanoimino-1-[1-(cyclooctyl)-2,6-ethano-4-one-4-piperidinyl]-1,3-dihydro-2H-benzimidazole”, the pKi is 7.72.

Regarding “2-cyanoimino-3-acetomido-1-[1-(cyclooctyl)-4-piperidinyl]-1,3-dihydro-2H-benzimidazole”, the negative logarithm of the Ki (pKi) was 7.96.
